We go through one compound from patent US11746100B2 (GLOBAL BLOOD THERAPEUTICS, INC., priority 2020, dated 2023).

Protein sequences, listed by entry. Tags and fused reporters are not part of them.
UniProt Q9NP59, whole entry: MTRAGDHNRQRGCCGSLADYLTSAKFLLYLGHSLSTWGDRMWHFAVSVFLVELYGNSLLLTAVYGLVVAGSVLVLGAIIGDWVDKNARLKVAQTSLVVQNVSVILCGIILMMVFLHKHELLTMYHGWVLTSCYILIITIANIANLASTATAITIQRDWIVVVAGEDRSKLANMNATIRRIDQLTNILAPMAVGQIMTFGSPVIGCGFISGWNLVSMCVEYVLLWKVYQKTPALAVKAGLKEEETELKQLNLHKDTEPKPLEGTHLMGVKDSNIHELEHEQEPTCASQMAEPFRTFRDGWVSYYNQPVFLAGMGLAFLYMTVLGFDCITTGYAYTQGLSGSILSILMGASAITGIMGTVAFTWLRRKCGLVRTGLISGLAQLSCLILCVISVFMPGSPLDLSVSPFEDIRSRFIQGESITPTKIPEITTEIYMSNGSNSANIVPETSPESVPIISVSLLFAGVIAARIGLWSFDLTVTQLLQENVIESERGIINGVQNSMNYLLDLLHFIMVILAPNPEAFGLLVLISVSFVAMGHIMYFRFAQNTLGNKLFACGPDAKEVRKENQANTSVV

The target in this assay is human ferroportin (Homo sapiens, UniProt Q9NP59). The experiment in a line: Biological in-vitro ferroportin internalization assay (luciferase reporter). Type of assay: cell-based. As to conditions: average pEC50; stably-transfected CHO cell line expressing human ferroportin tagged to a luciferase reporter; 6 h incubation with test compound. As to the method: The protocol for this assay is generally as described in WO2018/128828, incorporated herein by reference in its entirety. Functional internalization of ferroportin protein was measured using a stably-transfected CHO cell line expressing the human ferroportin tagged to a luciferase reporter. Cells were plated for 24 h in the presence of ferric ammonium citrate (FAC). Ferroportin protein expression was induced with doxycycline for 24 h. The next day, the compounds were added. Test compounds were dissolved in DMSO. Cells were incubated with the test compounds for 6 h, and subsequently luciferase activity was measured using the Nano-Glo Luciferase Assay System and Glomax (Promega, Madison, Wis.). The average pEC50 was determined for the test compounds.

In turn, `COc1ccc(NC(=O)[C@@H](C(C)C)N(C)c2nc(-c3ccccn3)nc3c2CCC3)cn1` returned a negative-log EC50 (pEC50) of 7.3.

What is called pEC50 is the EC50 on a negative log10 scale, so that one unit is a factor of ten.
